# Results: US9527913B2, “Humanized pan-HER antibody compositions” (Symphogen A/S, priority 2012, dated 2016)
# Read-outs that look alike come from different tables or passages of the source.
# Tests used:
# HN5 cells = test: WST-1 metabolic activity, parental and cetuximab resistant cells (Example 5); format: cell-based, human; conditions: 96 hours
# Description: (§1) Trastuzumab resistant OE19 cells and pertuzumab resistant MDA-MB-175-VII cells were established by exposing parental cells to increasing concentrations of trastuzumab [10-100 μg/ml] and pertuzumab [1-50 μg/ml] respectively, during a period of eight months and 12 months respectively. Cells were split once or twice a week in order to keep cells in exponential growth. The level of resistance was tested every month in a WST-1 viability assay as described in Example 2, until a pool of resistant cells was established. Single cell clones of trastuzumab resistant OE19 cells were generated through limited dilution cloning of the acquired trastuzumab resistant pool of OE19 cells as described in Example 11.
# (§2) Metabolic activity was determined after 96 hours incubation using a similar WST-1 assay as described in Example 2.
# [1] = tested on: EGFR, HER2 and HER3 in H292 cells; test: Western blot of EGFR, HER2 and HER3 in whole cell lysates (Example 6); format: cell-based, human; conditions: H292, 20 μg/ml, 48 hour
# [2] = tested on: patient-derived xenograft models of pancreatic cancer; set-up: key to Cet. resp. (20 mg/kg): PD: Progressive disease; conditions: cited from earlier work
# [3] = tested on: parental HN5 cells and clones HN5 CR2, HN5 CR6, HN5 CR13, HN5 CR14; test: WST-1 viability assay of cetuximab resistant HN5 clones (Example 11); format: cell-based, human; conditions: HN5 CR2, CR6, CR13, CR14 versus parental; 96 hours
# Description: Cells were split twice a week in order to keep cells in exponential growth. […] 0.5 cells/well were plated in 384 well plates. Growth and proliferation of single cell colonies was followed using Novartis Cellavista Imager. The most resistant individual clones, HN5 CR2, HN5 CR6, HN5 CR13, and HN5 CR14, were selected for further characterization (FIG. 36).
# [4] = tested on: fixed parental HN5 cells and resistant clones HN5 CR2, HN5 CR6, HN5 CR13, HN5 CR14; test: Cetuximab binding to fixed cells; format: cell-based, human; conditions: resistant clones compared to parental cells
# OE19 cells = test: WST-1 metabolic activity, parental and trastuzumab resistant cells (Example 5); format: cell-based, human; conditions: 96 hours
# Description: as §1, §2
substance,measurement,setting,value
cetuximab,metabolic activity,HN5 cells; cetuximab resistant HN5 cells,unaltered
same,metabolic activity,HN5 cells; parental HN5 cells,reduced
same,"EGFR, HER2 and HER3 levels in whole cell lysates",[1],HER2 upregulation
same,Cet. resp. (20 mg/kg),[2]; model ST191,PD
same,Cet. resp. (20 mg/kg),[2]; model ST204,PD
same,Cet. resp. (20 mg/kg),[2]; model ST334,PD
same,Cet. resp. (20 mg/kg),[2]; model ST385,PD
same,viability of resistant clones,[3],resistant clones were viable with increasing concentrations
same,half-maximal binding (EC50 value),[4],unaltered
same,maximal binding,[4],decreased
trastuzumab,Other (resistance),[2]; model ST334,resist.
same,metabolic activity,OE19 cells; parental OE19 cells,reduced
same,metabolic activity,OE19 cells; trastuzumab resistant OE19 cells,unaltered
